Measurements from patent US20260308224A1, “METHODS AND COMPOSITIONS FOR DISPLAYING PEPTIDE LIBRARIES” (priority 2023, published 2026).

By UniProt entry, the sequences of proteins in these tests, tags left out. Where a name states a change or a piece, a line headed by the entry shows the natural chain unless it says otherwise.
UniProt P41145: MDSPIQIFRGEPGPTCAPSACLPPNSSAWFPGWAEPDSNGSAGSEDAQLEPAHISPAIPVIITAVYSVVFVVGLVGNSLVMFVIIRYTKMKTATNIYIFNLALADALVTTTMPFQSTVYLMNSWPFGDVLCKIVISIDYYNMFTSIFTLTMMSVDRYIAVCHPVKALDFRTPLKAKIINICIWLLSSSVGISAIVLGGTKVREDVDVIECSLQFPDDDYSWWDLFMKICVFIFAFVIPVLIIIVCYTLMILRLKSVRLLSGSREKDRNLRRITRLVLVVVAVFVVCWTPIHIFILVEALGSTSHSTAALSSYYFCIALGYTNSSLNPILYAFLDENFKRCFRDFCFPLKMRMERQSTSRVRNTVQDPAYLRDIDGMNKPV

Target: HsKOR (Homo sapiens, UniProt P41145)
Assay: cell-based
Details: n=3, pTDH3, integrated receptor

Work on `CC[C@H](C)[C@H](NC(=O)[C@H](CCCN=C(N)N)NC(=O)[C@H](CCCN=C(N)N)NC(=O)[C@H](CC(C)C)NC(=O)[C@H](Cc1ccccc1)NC(=O)CNC(=O)CNC(=O)[C@@H](N)Cc1ccc(O)cc1)C(=O)O` [dynorphin A 1-8] yielded an EC50 (EC50, cholesterol (CHOL) strain, 95% CI=2.29 to 5.96 μM) of 3.71 µM and an EC50 (EC50, ergosterol (ERG) strain, 95% CI=0.768 to 2.43 μM) of 1.33 µM.
